According to PMC6881340:

Molecular target: actin filament (UniProt P68135)
Assay: darkfield tracking of a gold nanoparticle on a single myosin head; as a2 but data taken at 19 ± 0.5 °C, 40 µs time resolution; trajectories analysed by nonparametric Bayesian inference (hidden Markov model, 1000 inferences) for transient (weak) binding states

In the case of “lever-arm-less S1 of human skeletal muscle myosin IIa (light chain null construct), SNAP-FLAG-His, oligonucleotide-labeled (from UniProt Q9UKX2 1-849) (domain or fragment)”, the dwell time of the transient binding state at 9.9 nm is reported as 238 μs, the dwell time of the transient binding state at 22.8 nm is reported as 513 μs and the dwell time of the transient binding state at -1.1 nm is reported as 160 μs. For the same substance, the dwell time of the transient binding state at -12.9 nm was 237 μs, the dwell time of the transient state at 10.0 nm, one typical inference was 278 μs and the dwell time of the transient state at 21.9 nm, one typical inference was 486 μs. It also gave a dwell time of the transient state at -1.3 nm, one typical inference of 160 μs, a dwell time of the transient state at -12.5 nm, one typical inference of 299 μs and a fold prolongation of the dwell time, strong binding against weak binding of 250 fold.
